The numbers were not newly measured in PubChem BioAssay AID1811 (Shanghai Institute of Organic Chemistry, 2009), which cites them from elsewhere.

The structures appear in SMILES notation. Some of the results follow. Activity calls are given as the source filed them. Unless stated, no cut-off for active and inactive is given here.

This data set deals with coagulation factor x. The experiment in a line: PubChem AID 1811. The note with it: PDB complex binding affinities from literature.

For the compound `CC(C)N1CCC(NC(=O)c2cc3ccccc3n2CC(=O)Nc2ccc(Cl)cc2)CC1`, the result was active.
